# Test results published in ChEMBL document CHEMBL1134931, “Aminoalkoxybiphenylnitriles as histamine-3 receptor ligands” (Bioorg Med Chem Lett, 2002).
# Amino acid sequences for entries named in this document (tags omitted). A change or cut given only in a name is not applied to a line headed by its entry.
# UniProt Q9QYN8: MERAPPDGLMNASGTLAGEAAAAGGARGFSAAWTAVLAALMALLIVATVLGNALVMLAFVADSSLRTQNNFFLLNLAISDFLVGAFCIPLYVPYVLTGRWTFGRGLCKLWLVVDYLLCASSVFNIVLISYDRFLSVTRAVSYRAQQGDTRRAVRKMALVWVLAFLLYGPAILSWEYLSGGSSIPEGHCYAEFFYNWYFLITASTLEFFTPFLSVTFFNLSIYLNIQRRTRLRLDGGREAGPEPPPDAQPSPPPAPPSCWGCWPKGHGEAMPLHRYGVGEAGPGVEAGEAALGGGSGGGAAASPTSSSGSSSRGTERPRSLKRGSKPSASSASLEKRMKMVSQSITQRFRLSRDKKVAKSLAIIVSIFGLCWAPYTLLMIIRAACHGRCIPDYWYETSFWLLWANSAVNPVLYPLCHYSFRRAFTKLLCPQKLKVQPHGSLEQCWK
# Target: Histamine H3 receptor (Rattus norvegicus, UniProt Q9QYN8)
# Assay: Binding affinity at rat cortical Histamine H3 receptor
structure (smiles),measurement,value
CN[C@@H]1CCN(CCCOc2ccc(-c3ccc(C#N)cc3)cc2)C1,Ki,29.5 nM
